Antibody variant affinities, Ab-91 heavy chain, assay 2

The target is the same throughout: PDVDLGDISGINAS, from the HR2 region of SARS-CoV-2 spike.

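Phage display of a naive human antibody library on the peptide gave the parent. AAYL51 was designed without a model: most single CDR substitutions and a random sample of double and triple ones. The scFvs were displayed on barcoded MATa yeast, the peptide on MATalpha yeast. After mating in shaken culture at 30 °C for 16 h, diploids were selected and their barcode pairs sequenced. A regression on co-assayed BCL2-family reference pairs converts the normalised counts of each replicate to an apparent Kd. There are three technical replicates.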

Parent scFv Ab-91: VL joined to VH by a 15-residue (Gly4Ser)3 linker. Changes lie in the heavy chain CDRs alone.
VL: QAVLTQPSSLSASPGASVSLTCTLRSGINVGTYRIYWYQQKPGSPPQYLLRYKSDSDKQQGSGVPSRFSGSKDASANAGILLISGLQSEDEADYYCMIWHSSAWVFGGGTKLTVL
VH: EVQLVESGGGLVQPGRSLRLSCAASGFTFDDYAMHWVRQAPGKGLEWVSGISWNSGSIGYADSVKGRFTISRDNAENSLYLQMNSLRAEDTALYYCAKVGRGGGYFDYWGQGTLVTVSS

Changes read parent residue, position, new residue, counted from the first residue of the VH shown. Every variant below is changed at D107 of the VH (sequential numbering). Values are apparent Kd, the geometric mean of the replicates that gave a signal; lower means stronger binding. A pair that was not seen in any replicate is written "nd"; this usually means weak binding, but a binder can also be missed.

With G26P T28K D107Y the result was 300 µM (1 of 3 replicates; controls 5 of 9). The variant T28H S63W D107Q gave 250 nM (1 of 3 replicates; controls 0 of 9). For D62C D107K Y108A, the assay gave 160 µM (1 of 3 replicates; controls 0 of 9). For S52K V64W D107Y, the assay gave nd (0 of 3 replicates; controls 4 of 9). The variant F29W G59S D107S showed nd (0 of 3 replicates; controls 3 of 9). The variant M34C G103F D107T gave nd (0 of 3 replicates; controls 0 of 9). The variant A33P G104S D107N showed nd (0 of 3 replicates; controls 0 of 9). The variant A33F S52D D107F gave nd (0 of 3 replicates; controls 1 of 9).

For A33M D107K, the assay gave 150 µM (3 of 3 replicates; controls 5 of 9). The variant M34K I58P D107M showed 74 µM (2 of 3 replicates; controls 3 of 9). The variant M34P G50T D107R showed 12 µM (1 of 3 replicates; controls 2 of 9). The variant S57T K65F D107F gave 430 nM (3 of 3 replicates; controls 1 of 9). The variant G26W I51T D107Y showed 11 µM (1 of 3 replicates; controls 1 of 9). The variant Y60T K65Q D107Y showed 130 µM (1 of 3 replicates; controls 2 of 9). The variant Y32T V99W D107M showed 160 nM (3 of 3 replicates; controls 1 of 9). The variant G102I D107K showed 12 µM (1 of 3 replicates; controls 2 of 9).

For H35L N54C D107H, the assay gave nd (0 of 3 replicates; controls 0 of 9). The variant T28L D31V D107A gave nd (0 of 3 replicates; controls 1 of 9). For M34A K65T D107V, the assay gave nd (0 of 3 replicates; controls 0 of 9). For G102Q D107S, the assay gave nd (0 of 3 replicates; controls 1 of 9). The variant W53M V99W D107K gave 21 µM (1 of 3 replicates; controls 2 of 9). For M34P G50I D107I, the assay gave nd (0 of 3 replicates; controls 0 of 9). The variant S57W G103V D107S showed 190 µM (3 of 3 replicates; controls 6 of 9). For V64L G103W D107H, the assay gave 5.5 µM (1 of 3 replicates; controls 0 of 9).

For K65V G102F D107L, the assay gave 2.9 µM (3 of 3 replicates; controls 8 of 9). The variant T28N A61C D107E showed 310 nM (3 of 3 replicates; controls 1 of 9). The variant F27Y H35Q D107C gave 11 µM (1 of 3 replicates; controls 2 of 9). The variant M34R Y60K D107E showed 90 µM (1 of 3 replicates; controls 1 of 9). The variant G26S G104N D107G showed 150 µM (1 of 3 replicates; controls 3 of 9). For G26W A33L D107E, the assay gave nd (0 of 3 replicates; controls 5 of 9). The variant D30W H35A D107C showed 160 µM (1 of 3 replicates; controls 3 of 9). For D30C D62N D107M, the assay gave 72 µM (3 of 3 replicates; controls 5 of 9).

For N54R G56K D107Y, the assay gave 35 µM (1 of 3 replicates; controls 3 of 9). The variant Y105Q F106H D107L showed nd (0 of 3 replicates; controls 0 of 9). For S63P V64P D107E, the assay gave nd (0 of 3 replicates; controls 0 of 9). The variant G56H A61C D107I showed nd (0 of 3 replicates; controls 0 of 9). For W53N A61C D107A, the assay gave 47 µM (2 of 3 replicates; controls 5 of 9). The variant H35W Y60I D107N showed 100 nM (3 of 3 replicates; controls 0 of 9). The variant S52E V99I D107Y showed 120 µM (2 of 3 replicates; controls 1 of 9). The variant S55M R101Y D107T showed 95 µM (2 of 3 replicates; controls 1 of 9).

With D30W G104C D107S the result was nd (0 of 3 replicates; controls 1 of 9). For F27L A61S D107R, the assay gave 25 µM (1 of 3 replicates; controls 0 of 9). For W53Q V99A D107N, the assay gave 450 nM (1 of 3 replicates; controls 1 of 9). The variant Y60V S63Q D107F gave 730 µM (2 of 3 replicates; controls 5 of 9). The variant I58L D107Y showed nd (0 of 3 replicates; controls 0 of 9). The variant K65N D107F Y108A gave nd (0 of 3 replicates; controls 1 of 9).

The last 3 entries again:

changes,apparent Kd,replicates with signal,empty controls
Y60V S63Q D107F,730 µM,2/3,5/9
I58L D107Y,nd,0/3,0/9
K65N D107F Y108A,nd,0/3,1/9

For reference, the parent read 72 nM as the reference entry and 7.5 nM as a member of this library. As a blank, each scFv also met three strains without target: over library AAYL51, 21% of these pairings were detected, typically at 34 µM and seldom below 1.8 µM. Also given: how often the same scFv was detected with the empty control strains.

The measurements come from Engelhart et al. 2022 (doi:10.1038/s41597-022-01779-4) through the FLAb antibody collection.